{"sequences": {"note": "Sequences of proteins named here, by UniProt entry; tags and fusion partners are left off.", "UniProt P28223, whole entry, looked up": "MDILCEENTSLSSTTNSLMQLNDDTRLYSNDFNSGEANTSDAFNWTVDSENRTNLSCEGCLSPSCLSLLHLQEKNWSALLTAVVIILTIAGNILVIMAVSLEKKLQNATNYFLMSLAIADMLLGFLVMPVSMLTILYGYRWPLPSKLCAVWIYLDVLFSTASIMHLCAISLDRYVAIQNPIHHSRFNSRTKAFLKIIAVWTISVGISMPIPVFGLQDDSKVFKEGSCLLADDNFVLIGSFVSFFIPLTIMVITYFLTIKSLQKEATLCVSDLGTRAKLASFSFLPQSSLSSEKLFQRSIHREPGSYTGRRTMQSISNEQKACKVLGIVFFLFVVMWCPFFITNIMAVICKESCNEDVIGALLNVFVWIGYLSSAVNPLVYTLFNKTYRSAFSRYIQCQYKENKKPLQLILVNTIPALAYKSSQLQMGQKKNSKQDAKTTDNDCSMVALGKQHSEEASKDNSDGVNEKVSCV", "UniProt P33261, whole entry, looked up": "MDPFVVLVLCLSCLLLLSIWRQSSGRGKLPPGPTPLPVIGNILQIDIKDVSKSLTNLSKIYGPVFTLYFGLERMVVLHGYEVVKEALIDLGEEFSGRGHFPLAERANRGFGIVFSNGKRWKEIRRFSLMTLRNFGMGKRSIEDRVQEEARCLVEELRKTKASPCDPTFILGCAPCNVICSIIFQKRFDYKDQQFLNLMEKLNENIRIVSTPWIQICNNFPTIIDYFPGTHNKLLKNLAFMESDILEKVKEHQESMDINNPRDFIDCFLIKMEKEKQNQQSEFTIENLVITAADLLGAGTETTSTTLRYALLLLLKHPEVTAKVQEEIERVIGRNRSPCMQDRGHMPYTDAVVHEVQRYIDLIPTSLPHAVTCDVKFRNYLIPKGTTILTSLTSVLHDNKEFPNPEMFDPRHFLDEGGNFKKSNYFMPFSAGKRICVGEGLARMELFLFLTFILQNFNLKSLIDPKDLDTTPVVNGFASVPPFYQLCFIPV", "UniProt P08172, whole entry, looked up": "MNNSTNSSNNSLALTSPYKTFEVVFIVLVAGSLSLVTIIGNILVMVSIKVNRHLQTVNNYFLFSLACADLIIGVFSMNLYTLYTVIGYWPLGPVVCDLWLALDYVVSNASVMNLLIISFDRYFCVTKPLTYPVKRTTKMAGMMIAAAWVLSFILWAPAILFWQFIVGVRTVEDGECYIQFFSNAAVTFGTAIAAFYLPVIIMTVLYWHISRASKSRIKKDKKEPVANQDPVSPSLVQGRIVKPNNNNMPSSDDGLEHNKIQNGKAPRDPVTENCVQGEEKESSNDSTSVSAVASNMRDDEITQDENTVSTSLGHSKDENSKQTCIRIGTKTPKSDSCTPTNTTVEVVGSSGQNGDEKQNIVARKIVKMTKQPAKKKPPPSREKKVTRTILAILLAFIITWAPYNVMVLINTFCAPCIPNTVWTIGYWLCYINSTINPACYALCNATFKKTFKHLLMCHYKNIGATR", "UniProt P30536, whole entry, looked up": "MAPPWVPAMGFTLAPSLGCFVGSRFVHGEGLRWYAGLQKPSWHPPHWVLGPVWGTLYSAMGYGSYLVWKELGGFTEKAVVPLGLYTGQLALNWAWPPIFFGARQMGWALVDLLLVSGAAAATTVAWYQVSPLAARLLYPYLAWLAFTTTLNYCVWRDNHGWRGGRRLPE"}, "source": "PubChem BioAssay (EPA / NIEHS)", "key": {"[1]": {"target": "human Serotonin, 5-Hydroxytryptamine Receptor 2A (5HT2A), HTR2A (gene 3356) (UniProt P28223)", "test": "NVS_GPCR_h5HT2A: NovaScreen (NVS) G Protein-Coupled Receptor Assay for human Serotonin, 5-Hydroxytryptamine Receptor 2A (5HT2A) (AID 2283249)", "in_short": "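Radioligand displacement on human cortex tissue extract, counted by filtration and scintillation 1.5 h post-dosing. Initial single-concentration screen at 25 uM in duplicate, concentration series in follow-up; DMSO as baseline.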"}, "[2]": {"read-out": "Cytochrome P450 2C19 (Homo sapiens) (UniProt P33261)", "test": "LTEA_HepaRG_CYP2C19: Life Technologies and Expression Analysis (LTEA) Assay for CYP2C19 using HepaRG (AID 2283482; active means hit-call score of the fitted dose curve at least 0.9, where 1 is the maximum; inactive means score below 0.9)", "conditions": "actives raise or lower the signal; mRNA level, 48 h", "in_short": "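HepaRG, 48 h chemical exposure, 8-pt half-log series from 100 uM in 0.5% DMSO, duplicates. Readout: CYP2C19 mRNA by TaqMan qRT-PCR, housekeeping-normalized. Bidirectional fit vs DMSO baseline; phenobarbital 1mM as induction control.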"}, "[3]": {"target": "Muscarinic acetylcholine receptor M2 (Homo sapiens) (UniProt P08172)", "test": "NVS_GPCR_hM2: NovaScreen (NVS) G Protein-Coupled Receptor Assay for human Muscarinic, M2 Receptor (AID 2283273)", "in_short": "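CHO-expressed human M2 receptor preparation, competitive displacement of a radioligand read by filter-based scintillation counting after 1 h. Single 25 uM duplicate screen, then concentration-response follow-up of actives; DMSO baseline.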"}, "[4]": {"target": "human Peripheral-type Benzodiazepine Receptor (PBR), TSPO (gene 706) (UniProt P30536)", "test": "NVS_MP_hPBR: NovaScreen (NVS) Membrane Protein Assay for human Peripheral-type Benzodiazepine Receptor (PBR) (AID 2283331)", "experimental": "NVS_MP_hPBR is a biochemical, single-readout assay that uses extracted gene-proteins from Human colonic cell membranes in a tissue-based cell-free assay. Measurements were taken 1 hour after chemical dosing in a 48-well plate.NVS_MP_hPBR is one of one assay component(s) measured or calculated from the NVS_MP_hPBR assay. It is designed to make measurements of radioligand binding, a form of binding reporter, as detected with scintillation counting signals by Filter-based radiodetection technology.Data from the assay component NVS_MP_hPBR was analyzed into 1 assay endpoint. This assay endpoint, NVS_MP_hPBR, was analyzed in the positive analysis fitting direction relative to DMSO as the negative control and baseline of activity. […] Furthermore, this assay endpoint can be referred to as a primary readout, because the performed assay has only produced 1 assay endpoint. […]\nBinding assays used specific radioligands (tritiated, iodinated) with non-radioactive competitive displacement ligands in agonist or antagonist protocols (as indicated) and various reference compounds and inhibitors to titrate specific binding to receptors and transporters. Most enzyme assays (CYPs, kinases, phosphatases, proteases, HDACs) used recombinant protein and specific substrates (fluorescence mostly, some colorimetric and radioactive) and inhibitors, followed by a biochemical separation of substrate and product. […]"}}, "note": "The entries are a selection whose mix differs from that of the whole data set. Results filed as inconclusive are left out. Activity calls are given as the source filed them. How the source made its calls, unless noted: active means hit-call score of the fitted dose curve at least 0.9, where 1 is the maximum; inconclusive means response in the unintended direction; inactive means score below 0.9.", "data": [{"smiles": "CCc1nc(N)nc(N)c1-c1ccc(Cl)cc1", "values": [{"measurement": "AC50", "setting": "[1]", "result": "active: 4.7 µM"}, {"measurement": "AC50", "setting": "[2]", "result": "active: 50 µM"}]}, {"smiles": "NC(=NCCCCCCN=C(N)/N=C(\\N)Nc1ccc(Cl)cc1)/N=C(\\N)Nc1ccc(Cl)cc1", "values": [{"measurement": "AC50", "setting": "[3]", "result": "active: 0.969 µM"}]}, {"smiles": "CCC(C)N(C)C(=O)c1cc2ccccc2c(-c2ccccc2Cl)n1", "note": "(stereo not given)", "values": [{"measurement": "AC50", "setting": "[4]", "result": "active: 0.00477 µM"}]}, {"smiles": "Cc1c(C)c2c(c(C)c1O)CCC(C)(COc1ccc(CC3SC(=O)NC3=O)cc1)O2", "note": "(stereo not given)", "values": [{"measurement": "AC50", "setting": "[2]", "result": "active: 26.1 µM"}]}]}
